This is an account of results in PubChem BioAssay AID1053197 (The Scripps Research Institute Molecular Screening Center, 2014).

Amino acid sequences for entries named in this document (tags omitted).
UniProt Q9HAT2, whole entry: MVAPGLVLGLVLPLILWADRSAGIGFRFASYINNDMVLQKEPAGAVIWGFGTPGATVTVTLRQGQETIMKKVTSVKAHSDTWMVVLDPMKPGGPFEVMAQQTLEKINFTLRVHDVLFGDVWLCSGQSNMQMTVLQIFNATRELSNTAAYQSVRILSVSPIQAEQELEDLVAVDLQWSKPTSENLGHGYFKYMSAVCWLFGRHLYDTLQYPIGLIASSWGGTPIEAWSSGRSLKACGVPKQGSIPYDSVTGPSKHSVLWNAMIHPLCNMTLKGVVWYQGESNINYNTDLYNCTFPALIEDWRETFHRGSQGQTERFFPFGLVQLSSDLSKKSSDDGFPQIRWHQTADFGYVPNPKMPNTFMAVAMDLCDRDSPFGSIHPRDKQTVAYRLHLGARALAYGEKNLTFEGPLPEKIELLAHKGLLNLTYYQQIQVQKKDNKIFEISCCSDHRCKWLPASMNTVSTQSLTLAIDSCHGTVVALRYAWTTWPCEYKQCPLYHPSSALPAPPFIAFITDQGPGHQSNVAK

Structures are written as SMILES. Only a part is listed here, and it is no random draw. Activity calls are given as the source filed them.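 Rule for the calls: active = inhibition above a cutoff: mean of compounds within the control limits plus 3 SD of those (cut at about 17% in these data); inactive = the rest.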

This test has as its target Sialate O-acetylesterase (Homo sapiens) (UniProt Q9HAT2). As to the kind of experiment: human SIAE inhibitors, primary screen, biochemical, fluorescence polarization, FP-Rh probe, 1536-well HTS (AID 1053197).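 Note: 0% = plate median of compound wells and 100% = probe without SIAE protein.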 To be noted: SIAE FP-Rh probe binding, at 9.66 µM, stronger effect = higher value. (In general: Polarisation of emitted light reports the rotation of a fluorescent probe.)
Turning to `COc1ccc(-c2ccccn2)cc1.O=[N+]([O-])c1cc([N+](=O)[O-])c(O)c([N+](=O)[O-])c1`, the inhibition was inactive: -5.1%. Regarding `CCCOc1ccc(NP(C)(=O)Oc2ccc(Cl)cc2)cc1` (stereo not drawn), the inhibition is inactive: 13.7%.

As to `CP(=O)(Nc1ccc(SC(F)(F)F)cc1)Oc1ccccc1` (stereo not drawn), the inhibition was inactive: -5.42%. Turning to `COc1ccccc1OP(C)(=O)Nc1c(C)cccc1C` (stereo not drawn), the inhibition is inactive: 5.53%. With `CN1CCCCC1COC(=O)C1(O)c2ccccc2CCc2ccccc21` (stereo not drawn) the figure was active: 17.1%; with `O=[N+]([O-])c1cc([N+](=O)[O-])c(Nc2nnnn2CCO)c([N+](=O)[O-])c1`, inactive: 1.22%.

Consider `CCOC(=O)C(CC)C1=NC(C)(C)Cc2ccccc21.O=[N+]([O-])c1cc([N+](=O)[O-])c(O)c([N+](=O)[O-])c1` (stereo not drawn), for which the inhibition was inactive: -2.54%. For the compound `Cc1nc2ccc3ccccc3c2s1.O=[N+]([O-])c1cc([N+](=O)[O-])c(O)c([N+](=O)[O-])c1`, the inhibition was inactive: 0.61%.

Regarding `O=[N+]([O-])c1cc([N+](=O)[O-])c(-c2cnn(-c3ccccc3)c2)c([N+](=O)[O-])c1`, the inhibition is inactive: -0.39%. With `CN(Cc1cccnc1)C(=O)COc1ccc(Cl)c(Cl)c1.O=[N+]([O-])c1cc([N+](=O)[O-])c(O)c([N+](=O)[O-])c1` the figure was inactive: -0.5%; with `O=[N+]([O-])c1cc([N+](=O)[O-])c(-n2nnc3ccccc32)c([N+](=O)[O-])c1`, inactive: -3.37%; with `Cc1ccc(C)c(NP(C)(=O)Oc2ccccc2)c1` (stereo not drawn), inactive: -0.12%.

Take `Cc1cc(C)cc(OP(C)(=O)Nc2ccccn2)c1` (stereo not drawn): the inhibition was inactive: 3.76%. With `CP(=O)(Nc1cccc(Br)c1)Oc1ccccc1` (stereo not drawn) the figure was inactive: -2.4%; with `CCOC(=O)c1ccc(NP(C)(=O)Oc2cc(C)cc(C)c2)cc1` (stereo not drawn), inactive: 0.84%; with `Cc1cc(C)cc(OP(C)(=O)Nc2ccc(C)cc2C)c1` (stereo not drawn), inactive: 8.8%.

As for `COc1ccccc1OP(C)(=O)Nc1cccc(Br)c1` (stereo not drawn), the inhibition was inactive: -2.93%.

As for `CC1=NCCc2c1[nH]c1ccccc21.O=[N+]([O-])c1cc([N+](=O)[O-])c(O)c([N+](=O)[O-])c1`, the inhibition was inactive: -0.04%. With `O=C(O)c1cccc(Nc2c([N+](=O)[O-])cc([N+](=O)[O-])cc2[N+](=O)[O-])c1` the figure was inactive: 0.09%. For `Cc1cc(C)cc(OP(C)(N)=O)c1` (stereo not drawn), the inhibition was inactive: 8.66%.

With `COc1ccccc1OP(C)(=O)Nc1cc(Cl)ccc1C` (stereo not drawn), the inhibition is inactive: -1.11%. With `COc1ccc(OP(C)(=O)Nc2cccc(F)c2)cc1` (stereo not drawn) the figure was inactive: -2.16%; with `COc1ccccc1OP(C)(=O)Nc1ccc(C)cc1` (stereo not drawn), inactive: -0.43%. Regarding `Cc1ccc(NP(C)(=O)Oc2ccccc2)c(C)c1` (stereo not drawn), the inhibition was inactive: 0.64%. With `CCOC(=O)c1ccc(NP(C)(=O)Oc2ccccc2)cc1` (stereo not drawn) the figure was inactive: 5.86%; with `O=[N+]([O-])c1ccc2c(c1)C=Nc1ccccc1O2`, inactive: 1.9%.

For the compound `CC(C)(C)c1ccc(OP(C)(=O)Nc2ccc(SC(F)(F)F)cc2)cc1` (stereo not drawn), the inhibition was inactive: 1.17%. Take `Cc1cccc(C)c1OP(C)(N)=O` (stereo not drawn): the inhibition was inactive: 0.83%.

With `O=[N+]([O-])c1cc([N+](=O)[O-])c(Nc2cccnc2)c([N+](=O)[O-])c1`, the inhibition is inactive: 3.03%.

In the case of `COc1ccccc1-c1ccccn1.O=[N+]([O-])c1cc([N+](=O)[O-])c(O)c([N+](=O)[O-])c1`, the inhibition is inactive: -0.2%. For `CCN(CC)CCCOC(=O)C(O)(c1ccccc1)c1ccccc1`, the inhibition is inactive: -9.32%. With `CP(=O)(Nc1ccccn1)Oc1ccc(Cl)cc1` (stereo not drawn) the figure was active: 38.6%.

`CCOC(=O)c1ccc(NP(C)(=O)Oc2ccc(OC)cc2)cc1` (stereo not drawn): the inhibition was inactive: 3.47%. For the compound `O=[N+]([O-])c1cc([N+](=O)[O-])c(O)c([N+](=O)[O-])c1.c1ccc(Oc2ccncc2)cc1`, the inhibition is inactive: -2.47%. On to `CCOP(C)(=S)SCC(=O)NC(C)C(=O)O` (stereo not drawn), for which the inhibition was inactive: -2.78%. With `CP(=O)(NC(=O)Nc1ccccc1)Oc1ccccc1` (stereo not drawn) the figure was active: 90.2%; with `CCc1ccc(OP(C)(=O)N2CCN(c3ccc([N+](=O)[O-])cc3)CC2)cc1` (stereo not drawn), inactive: 2.5%. As for `Cc1cc(C)cc(OP(C)(=O)Nc2ccc(SC(F)(F)F)cc2)c1` (stereo not drawn), the inhibition is inactive: -1.8%. With `Cc1cccc(C)c1OP(C)(=O)Nc1ccc(SC(F)(F)F)cc1` (stereo not drawn), the inhibition was inactive: 4.79%.

`CP(=O)(Nc1ccc(SC(F)(F)F)cc1)Oc1ccc(Cl)cc1` (stereo not drawn): the inhibition was inactive: 0.3%.

As for `CP(=O)(Oc1ccccc1)OC(c1ccccc1)C(F)(F)F` (stereo not drawn), the inhibition was inactive: 0.96%. With `CP(=O)(Nc1ccccc1Br)Oc1ccccc1` (stereo not drawn) the figure was inactive: -5.07%. For the compound `COc1ccccc1OP(C)(=O)Nc1ccccc1` (stereo not drawn), the inhibition is inactive: -0.66%. With `CP(=S)(Nn1cnnc1)Oc1ccccc1` (stereo not drawn) the figure was inactive: 2.11%; with `CCOC(=O)c1ccc(NP(C)(=O)Oc2ccc(Cl)cc2)cc1` (stereo not drawn), inactive: 2.89%.

In the case of `CP(=O)(OC12CC3CC(CC(C3)C1)C2)OC12CC3CC(CC(C3)C1)C2`, the inhibition is inactive: -0.65%.

`Nc1ccc2c(ccc3cccnc32)n1.O=[N+]([O-])c1cc([N+](=O)[O-])c(O)c([N+](=O)[O-])c1`: the inhibition was inactive: -6.73%. In the case of `CN(C)C(=O)c1c([N+](=O)[O-])cc([N+](=O)[O-])cc1[N+](=O)[O-]`, the inhibition is inactive: -3.27%. On to `COc1ccccc1OP(C)(=O)Nc1ccccc1Br` (stereo not drawn), for which the inhibition is inactive: -4.91%.

`CC(C)(C)c1ccc(OP(C)(=O)O)cc1`: the inhibition is inactive: 6.04%.

In the case of `CP(=O)(Nc1ccc(Cl)cc1)Oc1ccc(F)cc1` (stereo not drawn), the inhibition is inactive: -9.44%. With `COc1ccccc1OP(C)(=O)Nc1c(C)n(C)n(-c2ccccc2)c1=O` (stereo not drawn) the figure was inactive: 2.74%; with `O=C(OCCCN1CCCC1)C(O)(c1ccccc1)C1CCCCC1` (stereo not drawn), inactive: 4.54%; with `CP(=O)(Oc1ccccc1)N1CCOC1=O` (stereo not drawn), inactive: 0.59%. With `CCc1ccc(OP(C)(=O)Nc2cccnc2)cc1` (stereo not drawn) the figure was inactive: 10.4%.

Consider `CCN(CC)CC(O)COC(=O)C(O)(c1ccccc1)C1CCCCC1` (stereo not drawn), for which the inhibition was inactive: 2.34%. Consider `COc1ccc(OP(C)(=O)Nc2ccc(Br)cc2)cc1` (stereo not drawn), for which the inhibition is inactive: -3.42%.

Turning to `CP(=O)(Nc1ccccn1)Oc1ccccc1` (stereo not drawn), the inhibition was inactive: -2.09%.

The inhibition is the change of the read-out against control, counted positive when it falls.
